This note sets out measurements from ChEMBL document CHEMBL4680357, “The Basicity Makes the Difference: Improved Canavanine-Derived Inhibitors of the Proprotein Convertase Furin” (ACS Med Chem Lett, 2021).

Protein sequences, listed by entry. Tags and fused reporters are not part of them.
UniProt P09958, whole entry: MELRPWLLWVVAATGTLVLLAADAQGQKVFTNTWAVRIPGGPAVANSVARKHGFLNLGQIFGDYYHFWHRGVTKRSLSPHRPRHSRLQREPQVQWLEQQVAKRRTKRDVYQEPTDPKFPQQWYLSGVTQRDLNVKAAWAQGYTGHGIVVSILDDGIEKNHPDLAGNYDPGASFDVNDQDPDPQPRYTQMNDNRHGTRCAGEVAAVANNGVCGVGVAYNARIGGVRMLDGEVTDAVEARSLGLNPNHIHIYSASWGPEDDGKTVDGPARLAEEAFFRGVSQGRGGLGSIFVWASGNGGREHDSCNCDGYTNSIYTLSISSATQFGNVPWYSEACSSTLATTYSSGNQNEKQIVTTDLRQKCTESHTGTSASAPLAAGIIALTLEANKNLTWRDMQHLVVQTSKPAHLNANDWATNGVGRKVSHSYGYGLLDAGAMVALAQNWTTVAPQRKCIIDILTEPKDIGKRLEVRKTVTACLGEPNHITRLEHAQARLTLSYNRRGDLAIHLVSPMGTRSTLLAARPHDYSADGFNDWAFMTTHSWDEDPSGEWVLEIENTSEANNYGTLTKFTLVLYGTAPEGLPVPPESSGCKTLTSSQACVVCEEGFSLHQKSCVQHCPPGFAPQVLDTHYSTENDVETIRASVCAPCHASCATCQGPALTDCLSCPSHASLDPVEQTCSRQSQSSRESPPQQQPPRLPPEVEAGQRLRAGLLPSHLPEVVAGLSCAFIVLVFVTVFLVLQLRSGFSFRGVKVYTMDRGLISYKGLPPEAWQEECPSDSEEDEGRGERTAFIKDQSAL

Molecules are shown by their SMILES.

Broadly, the Ki is the dissociation constant of the complex between target and ligand, obtained from inhibition or displacement.

The target in the test is Furin (Homo sapiens, UniProt P09958). The experiment in a line: Inhibition of recombinant soluble human furin using Phac-Arg-Val-Arg-Arg-AMC fluorogenic substrate. Summed up: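 Enzyme kinetic assay under standard conditions at pH 7.0, using recombinant soluble human furin and the fluorogenic AMC substrate. Inhibition constants were determined from the kinetics.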

Turning to `CC(C)(C)[C@H](NC(=O)[C@H](CCONC(=N)N)NC(=O)Cc1ccc(CN)cc1)C(=O)N[C@@H](CCCCN)C(=O)NCc1ccc(C(=N)N)cc1`, the Ki was 0.114 nM.
